Our source for the inhibition values is PubChem BioAssay AID652163 (Broad Institute, 2013).

Sequences of proteins named here, by UniProt entry; tags and fusion partners are left off.
UniProt P26447, whole entry: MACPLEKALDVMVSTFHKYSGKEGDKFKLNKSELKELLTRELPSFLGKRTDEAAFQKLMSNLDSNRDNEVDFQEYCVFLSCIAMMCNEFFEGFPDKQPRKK

This is a selection; strong and weak results do not stand in their true shares. The source made the active and inactive calls.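 The calls were made as follows: active = mean inhibition of at least 70% across replicates, with every replicate also reaching that level; inconclusive = mean inhibition reaches 70% but some replicates fall short; inactive = mean inhibition below 70%.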

This test deals with Protein S100-A4 (Homo sapiens) (UniProt P26447). The test can be described thus: human S100A4 protein-peptide interaction blockers – biochemical, fluorescence polarization, TAMRA-MyoIIA peptide, primary screen (AID 652163). To be noted: at 10.7 µM, active compounds read high. The procedure, abridged:
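Compound dosing: one dose per compound; test system: human S100A4 monomer with TAMRA-labelled myosin IIA peptide; probe or stimulus: TAMRA-labelled myosin IIA heavy-chain peptide probe, 5 nM; medium: HEPES buffer with Ca2+, pH 7.2; schedule: 5 min incubation before reading; benchmarks: neutral control DMSO, positive control TFP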
A general note: In fluorescence polarisation assays a small probe gives low polarisation when free and higher when bound to something large.
In general, inhibition refers to the change of the read-out against control, counted positive when it falls. For the compound `CN1CCC(Nc2ccc(F)c(Cl)c2)CC1`, the inhibition was inactive: 0.06%.
The value for `CCCOc1ccc(C(=O)NCC2(N(C)C)CCCCC2)cc1` was inactive: 11.8%; that for `O=c1[nH]c2ccccc2n1C1CCN(C(c2cc3ccccc3o2)c2nnnn2C2CCCC2)CC1` (stereo not drawn) was inactive: -7.2%.
The value for `CC(C)(C)OC(=O)N1CCC(Nc2ccccc2)CC1` was inactive: -5.84%; that for `NN(c1ccccc1)C1CCN(CCc2ccccc2)CC1` was inactive: -3.87%.
On to `O=C(O)C1(Nc2ccccc2)CCN(Cc2ccccc2)CC1`, for which the inhibition is inactive: -2.31%.
The value for `COc1cccc(C(=O)N(c2cc(C)cc(C)c2)C2CCN(C(=O)OC(C)(C)C)CC2)c1` was inactive: -1.62%; that for `COc1cccc(C(c2nnnn2C2CCCC2)N2CCC(n3c(=O)[nH]c4ccccc43)CC2)c1OC` (stereo not drawn) was inactive: 0.793%.
The value for `COc1cc(OC)cc(C(=O)NCC2(N3CCOCC3)CCCCC2)c1` was inactive: 1.39%; that for `CN1CCC(Nc2ccc(Cl)cc2)CC1` was inactive: -4.83%; that for `O=c1[nH]c2ccccc2n1C1CCN(C(c2ccnc3ccccc23)c2nnnn2C2CCCCC2)CC1` (stereo not drawn) was inactive: -0.594%.
On to `COc1cc(OC)cc(C(=O)NCC2(N3CCCCC3)CCCCC2)c1`, for which the inhibition was inactive: -6.85%.
The value for `CC(=O)N(c1ccccc1)C1CCNCC1` was inactive: -11.7%.
The value for `COc1cccc(C(c2nnnn2C2CCCCC2)N2CCC(n3c(=O)[nH]c4ccccc43)CC2)c1OC` (stereo not drawn) was inactive: -3.27%; that for `CCC(c1nnnn1C1CCCCC1)N1CCC(n2c(=O)[nH]c3ccccc32)CC1` (stereo not drawn) was inactive: -9.1%.
With `Cc1ccc(NC2(C#N)CCN(Cc3ccccc3)CC2)cc1`, the inhibition was inactive: 0.203%.
The value for `Cc1ccc(C(=O)NCC2(N3CCCCC3)CCCCC2)o1` was inactive: -6.87%; that for `Fc1ccccc1NC1CCN(Cc2ccccc2)CC1` was inactive: -2.01%.
Take `Cc1ccccc1NC1(C#N)CCN(Cc2ccccc2)CC1`: the inhibition is inactive: 2.59%.
The value for `CC(C)(C)n1nnnc1C(c1ccnc2ccccc12)N1CCC(n2c(=O)[nH]c3ccccc32)CC1` (stereo not drawn) was inactive: -6.73%; that for `COc1ccc(C(c2nnnn2C2CCCCC2)N2CCC(n3c(=O)[nH]c4ccccc43)CC2)cc1` (stereo not drawn) was inactive: -2.21%; that for `O=C(NCC1(N2CCCCC2)CCCCC1)c1ccco1` was inactive: -63.8%.
The value for `Cn1c(=O)[nH]cc(N(CCCl)CCCl)c1=O` was inactive: 1.29%; that for `CN(C)c1ccc(C(=O)NCC2(N3CCCCC3)CCCCC2)cc1` was inactive: -1.84%.
The value for `CC(C)(C)OC(=O)N1CCC(N(C(=O)c2ccccc2)c2ccc(Cl)cc2)CC1` was inactive: -6.31%; that for `N#Cc1ccc(C(=O)NCC2(N3CCCCC3)CCCCC2)cc1` was inactive: -0.93%.
`C/C(N)=N\P(=O)(Oc1ccccc1)Oc1ccccc1`: the inhibition is inactive: -0.973%.
The value for `CCCN1CCC(Nc2cc(OC)cc(OC)c2)CC1` was inactive: 34.2%.
In the case of `O=c1[nH]c2ccccc2n1C1CCN(C(c2ccccc2)c2nnnn2C2CCCC2)CC1` (stereo not drawn), the inhibition was inactive: -10.5%.
The value for `Cc1cc(N(CCCl)CCCl)ccc1C=O` was inactive: -19.5%.
Regarding `CN(C)C1(CNC(=O)c2cccc(C#N)c2)CCCCC1`, the inhibition is inactive: 3.12%.
The value for `CC(C)(C)n1nnnc1C(c1cccc2ccccc12)N1CCC(n2c(=O)[nH]c3ccccc32)CC1` (stereo not drawn) was inactive: 15.3%; that for `O=C(NCC1(N2CCOCC2)CCCCC1)c1cc(Br)ccc1Cl` was inactive: -7.34%.
The value for `CCCCn1nnnc1C(c1ccccc1)N1CCC(n2c(=O)[nH]c3ccccc32)CC1` (stereo not drawn) was inactive: -23%.
The value for `COc1cc(C(=O)NCC2(N3CCOCC3)CCCCC2)cc(OC)c1C` was inactive: -1.54%.
Consider `COc1ccc(C(=O)NCC2(N3CCOCC3)CCCCC2)cc1OC`, for which the inhibition is inactive: 1.64%.
In the case of `O=c1[nH]c2ccccc2n1C1CCN(C(c2ccnc3ccccc23)c2nnnn2C2CCCC2)CC1` (stereo not drawn), the inhibition is inactive: -2.91%.
Turning to `O=c1[nH]c2ccccc2n1C1CCN(C(c2cccs2)c2nnnn2C2CCCCC2)CC1` (stereo not drawn), the inhibition was inactive: 0.949%.
The value for `COc1cccc(C(c2nnnn2C(C)(C)C)N2CCC(n3c(=O)[nH]c4ccccc43)CC2)c1OC` (stereo not drawn) was inactive: -10.3%.
The value for `CCOC(=O)N1CCC(Nc2ccc(C)cc2)CC1` was inactive: -0.083%.
The value for `CCCCn1nnnc1C(c1cccc(OC)c1OC)N1CCC(n2c(=O)[nH]c3ccccc32)CC1` (stereo not drawn) was inactive: -2.01%; that for `O=c1[nH]c2ccccc2n1C1CCN(C(c2cccs2)c2nnnn2C2CCCC2)CC1` (stereo not drawn) was inactive: -0.96%.
With `COc1ccc(CN(CCCl)CCCl)cc1Cl`, the inhibition was inactive: -4.95%.
The value for `CN(C)c1cccc(C(=O)NCC2(N3CCCCC3)CCCCC2)c1` was inactive: -10.6%.
For the compound `CC(C)c1ccc(NC2CCN(C(=O)OC(C)(C)C)CC2)cc1`, the inhibition is inactive: -1.16%.
The value for `CCCCn1nnnc1C(c1ccnc2ccccc12)N1CCC(n2c(=O)[nH]c3ccccc32)CC1` (stereo not drawn) was inactive: -5.15%; that for `COc1cc(OC)c(C(=O)NCC2(N(C)C)CCCCC2)cc1OC` was inactive: 7.48%; that for `O=C(NCC1(N2CCOCC2)CCCCC1)c1cc(F)c(F)cc1Cl` was inactive: -0.962%.
Regarding `CCC(c1nnnn1C(C)(C)C)N1CCC(n2c(=O)[nH]c3ccccc32)CC1` (stereo not drawn), the inhibition is inactive: -3.24%.
The value for `O=C(NCC1(N2CCCCC2)CCCCC1)c1cncc(Br)c1` was inactive: 0.028%.
Take `CN1CCC(Nc2cccc(F)c2)CC1`: the inhibition is inactive: 4.37%.
The value for `Cc1ccc(C(=O)NCC2(N(C)C)CCCCC2)o1` was inactive: 1.22%; that for `CCCOc1ccc(C(=O)NCC2(N(C)C)CCCCC2)cc1OC` was inactive: -9.86%.
Take `COc1ccc(C(c2nnnn2C2CCCC2)N2CCC(n3c(=O)[nH]c4ccccc43)CC2)cc1` (stereo not drawn): the inhibition was inactive: -1.91%.
The value for `CC(C)(C)n1nnnc1C(c1ccccc1OC(F)(F)F)N1CCC(n2c(=O)[nH]c3ccccc32)CC1` (stereo not drawn) was inactive: 0.964%.
The value for `O=C(NCC1(N2CCCCC2)CCCCC1)c1ccc(OC(F)F)cc1` was inactive: -54.8%.
In the case of `CSc1ccc(C(=O)NCC2(N3CCOCC3)CCCCC2)cc1`, the inhibition is inactive: 0.0945%.
For `O=C(NCC1(N2CCCCC2)CCCCC1)c1cccc([N+](=O)[O-])c1`, the inhibition is inactive: -1.92%.
The value for `CCN1CCC(Nc2ccc(Cl)cc2)CC1` was inactive: 0.0135%; that for `O=c1[nH]c2ccccc2n1C1CCN(C(c2ccccc2OC(F)(F)F)c2nnnn2C2CCCC2)CC1` (stereo not drawn) was inactive: -4.74%.
For `O=C(NCC1(N2CCCCC2)CCCCC1)c1cccc(C(F)(F)F)c1`, the inhibition was inactive: 4.56%.
The value for `CCCCn1nnnc1C(c1cccc2ccccc12)N1CCC(n2c(=O)[nH]c3ccccc32)CC1` (stereo not drawn) was inactive: -3.78%; that for `COc1ccc(NC2CCN(C(=O)OC(C)(C)C)CC2)cc1` was inactive: -13.8%.
The value for `CC(C)c1ccc(C(=O)NCC2(N3CCOCC3)CCCCC2)cc1` was inactive: -3.92%.
The value for `CN1CCN(CCOC(=O)C(O)(c2ccccc2)c2ccccc2)CC1` was inactive: 1.79%.
`COc1cc(C(=O)NCC2(N3CCCCC3)CCCCC2)ccc1OC(F)F`: the inhibition is inactive: -44.3%.
The value for `CCOc1ccc(C)cc1CN(CCCl)CCCl` was inactive: -3.5%; that for `CC(C)(C)n1nnnc1C(c1ccccc1)N1CCC(n2c(=O)[nH]c3ccccc32)CC1` (stereo not drawn) was inactive: 0.093%.
The value for `O=C1CCN(Cc2ccccc2)CC1` was inactive: 0.754%; that for `O=C(NCC1(N2CCCCC2)CCCCC1)c1ccc(F)cc1` was inactive: -11.4%; that for `CCCCOc1ccc(C(=O)NCC2(N3CCOCC3)CCCCC2)cc1` was inactive: -4.57%.
The value for `O=P1(N(CCCl)CCCl)SCCCS1` was inactive: 1.45%; that for `CCCCn1nnnc1C(c1cc2ccccc2o1)N1CCC(n2c(=O)[nH]c3ccccc32)CC1` (stereo not drawn) was inactive: -3.37%.
Take `CCOC(=O)N1CCC(Nc2ccc(F)cc2)CC1`: the inhibition was inactive: -8.64%.
The value for `O=c1[nH]c2ccccc2n1C1CCN(C(c2ccccc2)c2nnnn2C2CCCCC2)CC1` (stereo not drawn) was inactive: -12.4%; that for `O=c1[nH]c2ccccc2n1C1CCN(C(c2cccc3ccccc23)c2nnnn2C2CCCC2)CC1` (stereo not drawn) was inactive: -1.76%.
The value for `COc1cc(C(=O)NCC2(N(C)C)CCCCC2)ccc1OC(F)F` was inactive: 3.54%.
Turning to `CCOC(=O)N1CCC(Nc2cccc(C)c2)CC1`, the inhibition is inactive: 2.86%.
The value for `O=C(NCC1(N2CCCCC2)CCCCC1)c1ccc(=O)[nH]c1` was inactive: 7.99%; that for `CCCCn1nnnc1C(c1cccs1)N1CCC(n2c(=O)[nH]c3ccccc32)CC1` (stereo not drawn) was inactive: 37.9%.
The value for `CCCCn1nnnc1C(CC)N1CCC(n2c(=O)[nH]c3ccccc32)CC1` (stereo not drawn) was inactive: -0.768%; that for `O=C(NCC1(N2CCCCC2)CCCCC1)c1cccs1` was inactive: -6.54%; that for `COc1ccc(C(=O)NCC2(N3CCCCC3)CCCCC2)cc1` was inactive: -7.94%.
The value for `CCC(c1nnnn1C1CCCC1)N1CCC(n2c(=O)[nH]c3ccccc32)CC1` (stereo not drawn) was inactive: -1.12%; that for `COc1ccc(C(=O)NCC2(N3CCCCC3)CCCCC2)c(OC)c1OC` was inactive: -37.5%.
As to `CC(C)(C)OC(=O)N1CCC(N(C(=O)c2ccccc2)c2ccc(F)cc2)CC1`, the inhibition was inactive: 0.104%.
As for `CSc1ccccc1C(=O)NCC1(N2CCCCC2)CCCCC1`, the inhibition is inactive: -27.6%.
The value for `Cc1cccc(NC2(C#N)CCN(Cc3ccccc3)CC2)c1` was inactive: -4.88%; that for `O=c1[nH]c2ccccc2n1C1CCN(C(c2ccccc2OC(F)(F)F)c2nnnn2C2CCCCC2)CC1` (stereo not drawn) was inactive: -2.86%.
Turning to `O=C(NCC1(N2CCCCC2)CCCCC1)c1ccc(Cl)nc1`, the inhibition was inactive: -2.41%.
The value for `Cc1cc(C)cc(N(C(=O)c2ccccc2)C2CCN(C(=O)OC(C)(C)C)CC2)c1` was inactive: 0.212%; that for `CCOC(=O)N1CCC(Nc2ccc(OC)cc2)CC1` was inactive: -6.15%; that for `CCCCn1nnnc1C(c1ccc(OC)cc1)N1CCC(n2c(=O)[nH]c3ccccc32)CC1` (stereo not drawn) was inactive: -2.83%.
As for `O=c1[nH]c2ccccc2n1C1CCN(C(c2cc3ccccc3o2)c2nnnn2C2CCCCC2)CC1` (stereo not drawn), the inhibition is inactive: -4.06%.
The value for `O=C(OC1CN2CCC1CC2)C1c2ccccc2Oc2ccccc21` (stereo not drawn) was inactive: -0.513%; that for `N#CC1(Nc2ccccc2)CCN(Cc2ccccc2)CC1` was inactive: 10.7%; that for `O=C(NCC1(N2CCCCC2)CCCCC1)c1ccc(Cl)s1` was inactive: -6.39%.
The value for `COc1ccc(Cl)cc1C(=O)NCC1(N2CCOCC2)CCCCC1` was inactive: -0.149%.
